The NIST ThermoML archive (doi:10.1016/j.fluid.2009.07.002)

Experiment: xn = mol fraction of the nth substance listed
Settings: 101 kPa, Liquid, Taylor dispersion method

OCCOCCOCCOCCO [tetraethylene glycol] + O
binary diffusion coefficient [m2/s]
Settings | 303.2 K | 308.2 K | 313.2 K | 318.2 K | 323.2 K
x1 = 0 | 7.06e-10 | 7.85e-10 | 8.82e-10 | 9.55e-10 | 1.07e-09
x1 = 0.2 | 2.39e-10 | 2.84e-10 | 3.33e-10 | 3.95e-10 | 4.68e-10
x1 = 0.4 | 1.96e-10 | 2.24e-10 | 2.63e-10 | 3.16e-10 | 3.67e-10
x1 = 0.6 | 1.63e-10 | 1.95e-10 | 2.38e-10 | 2.81e-10 | 3.34e-10
x1 = 0.8 | 1.51e-10 | 1.87e-10 | 2.19e-10 | 2.6e-10 | 3.18e-10
